Source: patent US4276304A, “Novel benzylalcohol derivative and process for preparing the same” (priority 1979, dated 1981)

System: blood platelets
Experiment: Preventive effect upon the aggregation of blood platelets (collagen-induced, platelet-rich plasma)
Type: cell-based, male Sprague-Dawley rats
Details: for Inhibition (%) against platelet aggregation, A* (test compound group): test compound 100 μg/ml, collagen, rat PRP; for Platelet aggregation inhibiting activity: 100 μg/ml, graded against acetylsalicylic acid 100 μg/ml

Substance | Inhibition (%) against platelet aggregation, A* (test compound group) | Platelet aggregation inhibiting activity
α-[(α,α-dimethyl-3,4-dimethoxyphenethylamino)methyl]-2-hydroxybenzylalcohol 1/2 oxalate | 67% | 
α-[(α,α-dimethyl-3,4-methylenedioxyphenethylamino)methyl]-2-hydroxybenzylalcohol 1/2 oxalate | 2% | - (less than 10% inhibition of platelet aggregation)
α-[(α,α-dimethyl-3,4-methylenedioxyphenethylamino)methyl]-2-methoxybenzylalcohol 1/2 succinate | 6% | - (less than 10% inhibition of platelet aggregation)
